Measurements published in patent US4820703A, “PAF-antagonistic thienotriazolodiazepine compounds and pharmaceutical uses thereof” (Yoshitomi Pharmaceutical Industries Ltd., priority 1986, dated 1989).

Test system: PAF-induced lethal shock
Assay: Effect on PAF-induced lethal shock in mice
Assay type: in vivo, mice (male ICR)
Settings: 80 μg/kg PAF i.v., 24 hours
Method: The experiment was carried out according to the method of Young et al. described in Prostaglandins, vol. 30, p. 545 (1985). Groups of 9 to 15 male ICR mice (Charles River) weighing 25-30 g were used. 80 μg/kg of PAF (Serdary Research Lab.) solution was intravenously administered in a lateral tail vein 1 hour after the oral administration of test compound (0.1 ml/10 g). […] Results were given as number of survivors/number of employed animals and survival rates (%) in Table 3.

CCc1cc2c(s1)-n1c(C)nnc1CN=C2c1ccccc1Cl [Etizolam, 6-(o-chlorophenyl)-8-ethyl-1-methyl-4H-s-triazolo[3,4-c]thieno[2,3-e][1,4]diazepine, reference compound]
Survival rate (1.0 mg/kg p.o.): 9.1% | number of survivors/number of employed animals (1.0 mg/kg p.o.): 1/11 | Survival rate (3.0 mg/kg p.o.): 27.3% | number of survivors/number of employed animals (3.0 mg/kg p.o.): 3/11 | Survival rate (10.0 mg/kg p.o.): 54.5% | number of survivors/number of employed animals (10.0 mg/kg p.o.): 6/11
